Test results reported in paper PMC7494911.

Columns and labels:
pSmad2 in BAL cells = conditions: mouse, in vivo, 1 mg/kg
[1] = tested on: bleomycin-induced lung fibrosis; conditions: mouse, in vivo
serum C3M = conditions: bleomycin 3 mg/kg, 15 mg/kg/day s.c. osmotic pump, prophylactic, in words
pSmad2 in lung tissue = conditions: prophylactic dosing, 14 days post bleomycin, in words
βIG-H3 = conditions: mouse, in vivo
PAI-1 = conditions: mouse, in vivo
[2] = tested on: bleomycin-induced pulmonary fibrosis; conditions: mouse, in vivo

Question: How did the “pSmad2 in BAL cells vs bleomycin/vehicle” value (pSmad2 in BAL cells) turn out when `Cc1cc(C)n(-c2cccc([C@H](CC(=O)O)CN3CC[C@@H](CCc4ccc5c(n4)NCCC5)C3)c2)n1` [GSK3008348] was run?
Answer: reduction

Question: What about the lung hydroxyproline levels [1] of the same compound?
Answer: partial inhibition

Question: And the “serum C3M” value (serum C3M)?
Answer: substantial inhibition

Question: What about the “phosphorylation of Smad2 in lung tissue” value (pSmad2 in lung tissue) of the same compound?
Answer: inhibited

Question: And the “bleomycin-induced increase of βIG-H3 in BALF” value (βIG-H3)?
Answer: inhibited

Question: And the “bleomycin-induced increase of PAI-1 in BALF” value (PAI-1)?
Answer: inhibited

Question: What about the “fibrosis by hydroxyproline and histology” value [2] of the same compound?
Answer: significant reduction in fibrosis
